This assay concerns the target TatRI-iCAL36. The assay can be described thus: fluorescence polarization. (Fluorescence polarisation rises when a labelled molecule tumbles more slowly, as on binding a larger partner.)

As for “CAL PDZ domain PDZ (from UniProt Q9HD26)”, the Ki amounted to 1500 nM.

A word on the Ki: it is the equilibrium dissociation constant of an inhibitor or competing ligand from its target.

The record behind these values is paper PMC9032934 (Pharmaceutics, 2022).
